The list shows a part of the results, in another mix than the full data. The source made the active and inactive calls. Cut-off read from the data, not from the text of the source: active = inhibition above about 60%; inconclusive = no clear call, values can overlap the other calls; inactive = below that.
Assay: 5' untranslated region of α-synuclein, MLPCN primary screen (AID 1813);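 note: H4 neuroglioblastoma cells stably carrying SNCA 5'UTR luciferase fusion; 0% = DMSO wells and 100% = positive control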
Conditions: alpha-synuclein 5'UTR reporter, inhibitor activity; hits give high values; tested at 7.5 µM
With COP1(=S)c2c(C)nn(CCC#N)c2N=C(c2ccc(F)cc2)N1C (stereo unspecified) the inhibition was inactive: -6.65%. For Cc1cc(SC(NC=O)C(Cl)(Cl)Cl)ncn1 (stereo unspecified), the inhibition was inactive: 15.8%. With O=P(Nc1ccccn1)(c1cccc2ccccc12)c1cccc2ccccc12 the inhibition was inactive: 22.9%. In the case of O=[N+]([O-])c1ccc(Nc2ccc(Oc3ccc([N+](=O)[O-])cc3[N+](=O)[O-])cc2)c([N+](=O)[O-])c1, the inhibition is reported as inactive: 12.3%. For CCOC(=O)Nc1cccc([As](=O)(O)O)c1, the inhibition was inactive: -2.33%. With CCCCOc1ccc(C(=O)NCC2(N3CCCCC3)CCCCC2)cc1OC the inhibition was inactive: -0.345%. For Cc1cc(SC(NC(=O)c2ccccc2)C(Cl)(Cl)Cl)nc(C(C)C)n1 (stereo unspecified), the inhibition was inactive: 12%. With CCOC(=O)Nc1ccc([As](=O)(O)O)c(O)c1 the inhibition was inactive: 19.4%. With CCN(CC)C(=S)SC(NC=O)C(Cl)(Cl)Cl (stereo unspecified) the inhibition was inactive: 13%. In the case of CC(C)NC(=O)NP(=O)(Oc1ccccc1)Oc1ccccc1, the inhibition is reported as inactive: -15.8%. With O=[N+]([O-])c1cc([N+](=O)[O-])c(-c2ccn[nH]2)s1 the inhibition was inactive: -37.5%. For ClCCSc1nnc(-c2cccnc2)o1, the inhibition was inactive: -32%. With CC(C)c1ccc(OP(=O)(Nc2ccccn2)Oc2ccccc2F)cc1 (stereo unspecified) the inhibition was inactive: -26%. With Cc1ccc(OP(=O)(Nc2ccc([N+](=O)[O-])cn2)Oc2ccc(C)cc2)cc1 the inhibition was inactive: 8.14%. For Cc1ccc2nc3c(c(C)c2c1)CC(C(Cl)Cl)S3 (stereo unspecified), the inhibition was inactive: -46.6%. For C[As](=O)(O)c1cccc(C(=O)O)c1, the inhibition was inactive: -2.55%. With O=[As](O)(c1ccc(O)cc1)c1ccccc1O the inhibition was inactive: 11.8%. In the case of COc1ccc(N/C(=N/P(=O)(N2CCOCC2)N2CCOCC2)N2CCOCC2)cc1, the inhibition is reported as inactive: 14.9%. In the case of COc1ccc2nc(NP(=O)(c3ccccc3)c3ccccc3)sc2c1, the inhibition is reported as inactive: 19.5%. With COc1cc(I)ccc1[As](=O)(O)O the inhibition was inactive: -2.53%. For Cc1c2c(nc3ccccc13)SC(C(Cl)Cl)C2 (stereo unspecified), the inhibition was inactive: -6.58%. For O=C(OC1CN2CCC1CC2)C12CC3CC(CC(C3)C1)C2 (stereo unspecified), the inhibition was inactive: -20.3%. For Cc1cc(=O)[nH]c(N[N+](=O)[O-])n1, the inhibition was inactive: -0.927%. For Oc1ccccc1CNc1ccccn1, the inhibition was inactive: -36.6%. In the case of Cc1c2non([O-])c-2c(C)[n+](=O)[n+]1[O-], the inhibition is reported as inactive: 10.5%. In the case of O=C(NC(Sc1ccncn1)C(Cl)(Cl)Cl)c1ccccc1 (stereo unspecified), the inhibition is reported as inactive: -25.8%. With CC(C)CC(=O)NC(Sc1ccc(Cl)cc1)C(Cl)(Cl)Cl (stereo unspecified) the inhibition was inactive: -13.5%. In the case of Nc1cc(N)c2nonc2c1[N+](=O)[O-], the inhibition is reported as inactive: 0.878%. With Clc1ccc(Cl)c(NC2=NCC(CBr)S2)c1 (stereo unspecified) the inhibition was inactive: 3.82%. In the case of CN1CCCC(OC(=O)C(c2ccccc2)c2ccccc2)C1 (stereo unspecified), the inhibition is reported as inactive: 7.8%. For COc1ccccc1OP(=O)(Nc1ccc(C)cn1)Oc1ccccc1OC, the inhibition was inactive: -6.67%. In the case of Cc1ccc(OP(=O)(Nc2nccs2)Oc2ccc(C)cc2)cc1, the inhibition is reported as inactive: 23.3%. For Cc1ccc(N/C(=N/P(=O)(N2CCOCC2)N2CCOCC2)N2CCOCC2)cc1, the inhibition was inactive: 29.8%. With NC(=O)c1cc([N+](=O)[O-])cc([N+](=O)[O-])c1N the inhibition was inactive: 13%. For Nc1cccc2ccc([As](=O)(O)O)cc12, the inhibition was inactive: 3.56%. In the case of CCN(N=Nc1nonc1N)c1nonc1N, the inhibition is reported as inactive: 22.5%. In the case of O=[N+]([O-])c1cc([N+](=O)[O-])c(CCN2CCOCC2)c([N+](=O)[O-])c1, the inhibition is reported as inactive: -8.38%. In the case of CCOP(=O)(Nc1ccccc1)OCC, the inhibition is reported as inactive: -26%. With Cc1cc(SC(NC(=O)c2ccc(F)cc2)C(Cl)(Cl)Cl)ncn1 (stereo unspecified) the inhibition was inactive: 23.9%. For CN(C(=O)Cc1ccc(Cl)c(Cl)c1)[C@H]1CCCC[C@@H]1N1CCCC1, the inhibition was inactive: 0%. With Cc1ccc(NP(=O)(Oc2ccccc2F)Oc2ccccc2F)nc1 the inhibition was inactive: 4.32%. In the case of O=P(Nc1nc2ccc(Cl)cc2s1)(c1ccccc1)c1ccccc1, the inhibition is reported as inactive: 26%. For O=C(O)c1ccccc1[As](=O)(O)O, the inhibition was inactive: 1.85%. For CC(=O)Nc1ccc([As](=O)(O)O)cc1, the inhibition was inactive: 7.22%. For O=C(O)CNc1ccc([As](=O)(O)O)cc1, the inhibition was inactive: 5.88%. In the case of O=[N+]([O-])c1cccc(NC2=NCC(CBr)S2)c1 (stereo unspecified), the inhibition is reported as inactive: 13.8%. For O=[N+]([O-])c1ncn(CCn2ncnc2[N+](=O)[O-])n1, the inhibition was inactive: 9.13%. For CC(C)(C)C(=O)NC(Sc1ccncn1)C(Cl)(Cl)Cl (stereo unspecified), the inhibition was inactive: -6.83%. With O=C(Nc1cc([As](=O)(O)O)ccc1O)c1ccccc1 the inhibition was inactive: -2.67%. With CC1CCN(C(=O)Oc2c(Cl)cc(Cl)c3cccnc23)CC1 the inhibition was inactive: -24.6%. With CC(C)=N/N=C(\N)N[N+](=O)[O-] the inhibition was inactive: 19.1%.

From PubChem BioAssay AID1813 (Broad Institute, 2009)
